Assay results as given in IntAct's records for PubMed 24899623.

B1: Leukocyte immunoglobulin-like receptor subfamily B member 2 (Homo sapiens), Q8N423 (parent)
chain: MTPIVTVLICLGLSLGPRTRVQTGTIPKPTLWAEPDSVITQGSPVTLSCQGSLEAQEYRLYREKKSASWITRIRPELVKNGQFHIPSITWEHTGRYGCQYYSRARWSELSDPLVLVMTGAYPKPTLSAQPSPVVTSGGRVTLQCESQVAFGGFILCKEGEDEHPQCLNSQPHARGSSRAIFSVGPVSPNRRWSHRCYGYDLNSPYVWSSPSDLLELLVPGVSKKPSLSVQPGPVMAPGESLTLQCVSDVGYDRFVLYKEGERDLRQLPGRQPQAGLSQANFTLGPVSRSYGGQYRCYGAHNLSSECSAPSDPLDILITGQIRGTPFISVQPGPTVASGENVTLLCQSWRQFHTFLLTKAGAADAPLRLRSIHEYPKYQAEFPMSPVTSAHAGTYRCYGSLNSDPYLLSHPSEPLELVVSGPSMGSSPPPTGPISTPGPEDQPLTPTGSDPQSGLGRHLGVVIGILVAVVLLLLLLLLLFLILRHRRQGKHWTSTQRKADFQHPAGAVGPEPTDRGLQWRSSPAADAQEENLYAAVKDTQPEDGVEMDTRAAASEAPQDVTYAQLHSLTLRRKATEPPPSQEREPPAEPSIYATLAIH

Variants of: B1
Conditions: with hlag_human HLA-G

Row | Variant | effect of a mutation on the interaction
1 | R59A;Y61A;W90A;D200A;N202A;Y205A | disrupting interaction strength
2 | G94D | disrupting interaction strength
3 | H92S | decreasing interaction strength
4 | W90A;D200A;N202A;Y205A | with no effect
5 | R59A;Y61A | disrupting interaction strength
6 | Y96A | decreasing interaction strength
7 | T93A | decreasing interaction strength
8 | Y96A;G392D | disrupting interaction strength
9 | R95E | decreasing interaction strength
10 | Y96A;T393E | disrupting interaction strength

The remaining lines, values ahead:

Row | effect of a mutation on the interaction | Variant
11 | decreasing interaction strength | Y394A
12 | decreasing interaction strength | T393E
13 | disrupting interaction strength | Y96A;Y394A
14 | decreasing interaction strength | Y100G
15 | decreasing interaction strength | Q99R
16 | decreasing interaction strength | G97R
17 | decreasing interaction strength | G392D
